Bioassay records as filed in PubChem BioAssay.
Most compounds without a hit are left out; they make up all but 1.3% or so of the library.
UUG fidelity – modulators of yeast start codon fidelity, primary screen, whole organism, S. cerevisiae, single point, plate reader; S. cerevisiae UUG-firefly luciferase reporter, luminescence/redox ratio; activity score, % at 18.7 µM; actives 0.13% (n = 350,000);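 active means replicate mean at a twofold rise or more, about +100% in these data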;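 further: firefly luciferase made from a UUG start codon reports start codon fidelity; reporter light over untreated wells divided by growth signal over untreated wells; some hits fall short of that in this replicate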
ARNT TACC3 PPI – disruptors of ARNT/TACC3 protein interaction, primary screen, biochemical, AlphaScreen, single concentration; 0.66% of 390,000 active; Transforming acidic coiled-coil-containing protein 3 (Homo sapiens), Q9Y6A5; AlphaScreen His-ARNT PAS-B/GST-TACC3 binding, luminescence; TACC3 fragment carries E629A point mutation; inhibition, % at 9.99 µM;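 active = mean inhibition of replicates at least 50% and at least half of replicates each reaching 50%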;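 note: 0% = complete ARNT plus TACC3 wells and 100% = ARNT alone without TACC3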
ERAP1 inh – human ERAP1 aminopeptidase inhibitors, primary screen, biochemical, single point, plate reader. inhibition, % at 10.7 µM. AID 652197, 2013. 0.15% of 340,000 active. recombinant ERAP1, Leu-AMC fluorescence, 60 min;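 active = mean replicate inhibition of at least 30%, or all replicates individually reaching that 30% level; inactive = mean below 30% and not every replicate reaching it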;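 note: 0% = neutral control wells and 100% = L-leucinethiol positive control wells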
S100A4 inh HTS – inhibitors of S100A4-myosin IIA peptide binding, primary screen, biochemical, fluorescence polarization, TAMRA-MyoIIA peptide; AID 652163, 2013; inhibition, % at 10.7 µM; 0.14% of 360,000 active; Protein S100-A4 (Homo sapiens), P26447;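 active = mean inhibition of at least 70% across replicates, with every replicate also reaching that level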
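assay system = human S100A4 monomer with TAMRA-labelled myosin IIA peptide | also added = labelled myosin peptide probe, 5 nM | incubation = 5 min between mix addition and reading | control set = DMSO and TFP controls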
AF4-AF9 inh – inhibitors of AF4 peptide binding to AF9, primary screen, biochemical, AlphaScreen, biotin-AF4 peptide, FLAG-AF9, single point; Protein AF-9 (Homo sapiens), P42568; inhibition, % at 10 µM; 0.47% of 350,000 active; AID 651704, 2012;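 active = every replicate reaching a set inhibition limit, whatever the replicate mean, cut at about 25% in these data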;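 note: 0% = plate neutral control median and 100% = total signal loss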
E-selectin induc – E-selectin induction in HUVECs, primary screen, imaging, HUVEC, immunofluorescence imaging, single point; P16581; normalized: neutral wells 0, TNF-alpha wells 100; activation, % at 7.58 µM; 0.37% of 260,000 active; AID 686992, 2013;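 active = mean E-selectin-positive cell signal at least 10% of the positive control, reached in at least 60% of replicates, without over 20% cell loss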
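System: HUVEC, human umbilical vein endothelial cells; quantity: 3,000 cells/well; buffer or medium: EGM-2 medium, gelatin-coated wells; dosing: single-point compound dose; detection: immunofluorescence imaging; evaluation: % PE-positive cells; benchmarks: TNF-alpha, DMSO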
Starred values were filed as active, the others as inactive; x = not tested or not shown.

Protein sequences, listed by entry. Tags and fused reporters are not part of them.
Protein AF-9 (Homo sapiens), P42568, UniProt P42568, whole entry, looked up: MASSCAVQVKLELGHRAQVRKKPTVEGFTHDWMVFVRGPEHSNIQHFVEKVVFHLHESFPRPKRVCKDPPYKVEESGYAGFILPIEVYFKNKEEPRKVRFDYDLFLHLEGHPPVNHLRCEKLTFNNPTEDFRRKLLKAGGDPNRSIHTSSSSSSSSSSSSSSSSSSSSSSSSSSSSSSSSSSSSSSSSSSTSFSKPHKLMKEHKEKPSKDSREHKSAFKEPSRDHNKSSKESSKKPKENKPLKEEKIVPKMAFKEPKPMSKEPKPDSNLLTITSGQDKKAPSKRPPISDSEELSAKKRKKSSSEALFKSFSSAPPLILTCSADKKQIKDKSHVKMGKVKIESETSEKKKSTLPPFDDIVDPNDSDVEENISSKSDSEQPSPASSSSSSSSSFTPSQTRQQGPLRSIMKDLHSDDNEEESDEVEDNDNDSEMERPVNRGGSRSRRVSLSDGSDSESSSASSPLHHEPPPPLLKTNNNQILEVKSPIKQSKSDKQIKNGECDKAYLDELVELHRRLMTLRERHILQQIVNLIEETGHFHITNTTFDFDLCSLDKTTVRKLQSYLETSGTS

SMILES | UUG fidelity | ARNT TACC3 PPI | ERAP1 inh | S100A4 inh HTS | AF4-AF9 inh | E-selectin induc
C=CC[C@H]1C=C[C@@H](C(C(=O)OC)C(=O)OC)CN1C(C)=O | -8 | 57* | 1 | 2 | -4 | 0
CC[C@H]1C=C[C@@H](C(C(=O)OC)C(=O)OC)CN1C(C)=O | -16 | 45 | 1 | -5 | -2 | 0
COCC(=O)Nc1ccc2c(c1)OC[C@@H](C)N(Cc1cc(-c3ccccc3)on1)C[C@@H](C)[C@H](OC)CN(C)C2=O | 1 | 8 | 1 | 4 | 1 | 1
Cc1noc(C)c1NC(=O)NCC[C@@H]1CC[C@@H](NC(=O)c2ccccc2)[C@H](CO)O1 | -3 | -5 | 2 | -7 | 2 | 0
C[C@@H]1CN([C@@H](C)CO)C(=O)c2cc(-c3ccccc3F)cnc2O[C@H]1CN(C)C(=O)NC1CCCC1 | 11 | 0 | 2 | -23 | -1 | -4
C[C@@H]1CN([C@H](C)CO)C(=O)c2cccc(NC(=O)C3CC3)c2O[C@H]1CN(C)CC1CC1 | -6 | -2 | -1 | 36 | -4 | 111*
C[C@@H]1CN([C@@H](C)CO)C(=O)c2cccc(NC(=O)C3CC3)c2O[C@@H]1CN(C)CC1CC1 | -9 | -5 | 1 | -18 | -4 | -3
C[C@@H]1CN([C@H](C)CO)C(=O)c2cccc(NC(=O)C3CCOCC3)c2O[C@H]1CN(C)C(=O)Nc1ccccc1 | -2 | -6 | 1 | -11 | 0 | 173*
C[C@@H]1CN([C@@H](C)CO)C(=O)c2cccc(NC(=O)C3CC3)c2O[C@@H]1CN(C)S(C)(=O)=O | 21 | 5 | 2 | 124* | -9 | 0
C[C@@H]1CN([C@H](C)CO)C(=O)c2cccc(NC(=O)C3CC3)c2O[C@@H]1CN(C)CC1CC1 | -8 | -3 | 0 | -35 | -3 | 77*
C[C@@H]1CN([C@@H](C)CO)C(=O)c2cccc(NC(=O)C3CC3)c2O[C@H]1CN(C)CC1CC1 | -7 | 24 | 0 | 57 | -2 | -3
C[C@H]1CN([C@@H](C)CO)S(=O)(=O)c2ccc(C3=CCCC3)cc2O[C@@H]1CN(C)S(=O)(=O)c1cn(C)cn1 | -6 | -1 | 3 | -6 | -1 | 0
C[C@@H](NC(=O)C[C@@H]1C[C@@H]2c3cc(NC(=O)CN(C)C)ccc3O[C@@H]2[C@H](CO)O1)c1ccccc1 | 5 | -6 | 0 | 0 | 0 | 0
CN1C(=O)c2cc(NC(=O)C3CCCCC3)ccc2OC[C@H]2O[C@H](CC(=O)NCC3CCCCC3)CC[C@@H]21 | x | x | 2 | -5 | -3 | 0
C[C@@H]1CCCCO[C@@H](CN(C)C(=O)Nc2cccc3ccccc23)[C@H](C)CN([C@@H](C)CO)C(=O)c2cc(NC(=O)Nc3cccc4ccccc34)ccc2O1 | x | x | 4 | -45 | -3 | 0
Cc1cc(NC(=O)c2ccccc2F)n(C(C)(C)C)n1 | -11 | -10 | x | 0 | 1 | 34*
Cc1cc(NC(=O)c2ccc(F)cc2F)n(-c2nc3ccccc3[nH]2)n1 | -14 | -12 | 5 | 0 | -9 | x
Cc1ccc(NC(=O)CN2CCOCC2)cc1Cl | -16 | -3 | 3 | -3 | -2 | 46*
O=C(CN1CCOCC1)Nc1ccc(Cl)cc1 | -4 | -3 | 1 | 5 | 0 | x
Cc1ccc(NC(=O)NCCN2CCCCC2)cc1Cl | -13 | 2 | 0 | -45 | 26* | 0
C[C@@H]1CN([C@H](C)CO)S(=O)(=O)c2ccc(C3=CCCC3)cc2O[C@H]1CN(C)C(=O)c1ccncc1 | -15 | 3 | 3 | 3 | -1 | 0
CC(=O)Nc1cccc(C(=O)NC2CCCc3c2cnn3-c2ccccc2F)c1 (stereo not drawn) | -22 | -19 | -5 | 199* | -9 | x
COc1cccc(C(=O)Nc2ccc3c(c2)C(=O)N(C)[C@@H]2CC[C@@H](CC(=O)NCC(F)(F)F)O[C@@H]2CO3)c1 | x | -9 | 2 | 8 | -1 | 0
O=c1c(CO)cc(CO)cc(CO)c1O | x | 74* | -1 | 2 | -4 | x
C[C@@H]1CN([C@@H](C)CO)S(=O)(=O)c2ccc(-c3cccnc3)cc2O[C@@H]1CN(C)C(=O)C1CC1 | x | x | x | x | x | 0

Exported in CSV form: part of the list above
smiles,UUG fidelity,ARNT TACC3 PPI,ERAP1 inh,S100A4 inh HTS,AF4-AF9 inh,E-selectin induc
C[C@@H]1CN([C@H](C)CO)C(=O)c2cccc(NC(=O)C3CC3)c2O[C@H]1CN(C)CC1CC1,-6,-2,-1,36,-4,111*
O=C(CN1CCOCC1)Nc1ccc(Cl)cc1,-4,-3,1,5,0,x

Next compounds:
SMILES | UUG fidelity | ARNT TACC3 PPI | ERAP1 inh | S100A4 inh HTS | AF4-AF9 inh | E-selectin induc
CCCCN1C(=O)/C(=C/C=C2\SCCN2C)SC1=S | x | 4 | -1 | 23 | 16 | 38*
CCCCCCCCCCCC1N=C(N)NC(CCCO)=C1C(=O)OC (stereo not drawn) | x | 2 | 44* | -1 | 8 | 0
CCCNC(=O)c1ccc2c(c1)CCN2S(C)(=O)=O | x | 0 | 2 | -4 | 2 | x
CS(=O)(=O)N1CCc2cc(C(=O)NC3CC3)ccc21 | x | -6 | -1 | -10 | -1 | 27*
CS(=O)(=O)N1CCc2cc(S(=O)(=O)NCCNS(=O)(=O)c3ccc4c(c3)CCN4S(C)(=O)=O)ccc21 | -3 | -2 | -3 | -17 | 0 | 53*
CO[C@@H]1CN(C)C(=O)c2ccc(NS(=O)(=O)c3ccccc3F)cc2OC[C@@H](C)NC[C@H]1C | x | -1 | 0 | 14 | 0 | x
COc1ccc(NC(=O)Nc2ccc3c(c2)CC(=O)N([C@H](C)CO)C[C@H](C)[C@@H](CN(C)C)O3)cc1 | 17 | 7 | 0 | 7 | 2 | -3
COCCn1c(N)c(N(Cc2ccccc2)C(=O)C2=COCCO2)c(=O)[nH]c1=O | -6 | -7 | 58* | -2 | -2 | 0
COCCn1c(N)c(N(Cc2ccccc2)C(=O)c2ccc3ccccc3c2)c(=O)[nH]c1=O | -6 | -9 | 11 | 0 | -5 | x
C/C(=N\NC(=O)c1ccccc1)c1c(C)[nH]n(-c2ccccc2)c1=O | -21 | 42* | -1 | -4 | 5 | x
O=C1CN(C(=O)c2cccs2)c2ccccc2N1 | -15 | 0 | x | x | x | x
O=C1CN(C(=O)COC(=O)c2cccs2)c2ccccc2N1 | -19 | -9 | -1 | -4 | 0 | 80*
S=C(N/N=C/c1ccccc1)N1CCOCC1 | -22 | 46* | x | x | x | x
S=C(Nc1ccccc1)N1CCOCC1 | x | -5 | -3 | -2 | -7 | x
O=[N+]([O-])c1ccc(CNc2ccc(Cl)cc2)s1 | -21 | 11 | 3 | -2 | 30* | 0
O=C(c1ccc(F)cc1)N1CC(=O)N2[C@H](CO)[C@H](c3ccc(C#CC4CC4)cc3)[C@H]2C1 | x | x | -1 | -13 | 1 | 1

Nothing new here: 3 of the compounds above.
SMILES | UUG fidelity | ARNT TACC3 PPI | ERAP1 inh | S100A4 inh HTS | AF4-AF9 inh | E-selectin induc
O=C1CN(C(=O)COC(=O)c2cccs2)c2ccccc2N1 | -19 | -9 | -1 | -4 | 0 | 80*
S=C(N/N=C/c1ccccc1)N1CCOCC1 | -22 | 46* | x | x | x | x
S=C(Nc1ccccc1)N1CCOCC1 | x | -5 | -3 | -2 | -7 | x
